Experimental data published in US20110104103A1, “Method of conjugating therapeutic compounds to cell targeting devices via metal complexes” (KREATECH BIOTECHNOLOGY B.V., priority 2005, published 2011).

How the values were obtained:
HUVEC = conditions: 48 h, 100 ng/ml

Substance: TRAIL
- cytotoxic activity (cell viability 48 h, caspases 4 h) (Jurkat leukemic T-cells): capable of killing tumour cells
- HUVEC cell viability (HUVEC): not affected
